Target: Amine oxidase [flavin-containing] B (Homo sapiens, UniProt P27338)
Assay: Inhibition of human recombinant MAO-B assessed as H2O2 production using p-tyramine substrate by fluorimetric method

Chains of the proteins cited; added tags and fusions are not shown.
UniProt P27338, whole entry: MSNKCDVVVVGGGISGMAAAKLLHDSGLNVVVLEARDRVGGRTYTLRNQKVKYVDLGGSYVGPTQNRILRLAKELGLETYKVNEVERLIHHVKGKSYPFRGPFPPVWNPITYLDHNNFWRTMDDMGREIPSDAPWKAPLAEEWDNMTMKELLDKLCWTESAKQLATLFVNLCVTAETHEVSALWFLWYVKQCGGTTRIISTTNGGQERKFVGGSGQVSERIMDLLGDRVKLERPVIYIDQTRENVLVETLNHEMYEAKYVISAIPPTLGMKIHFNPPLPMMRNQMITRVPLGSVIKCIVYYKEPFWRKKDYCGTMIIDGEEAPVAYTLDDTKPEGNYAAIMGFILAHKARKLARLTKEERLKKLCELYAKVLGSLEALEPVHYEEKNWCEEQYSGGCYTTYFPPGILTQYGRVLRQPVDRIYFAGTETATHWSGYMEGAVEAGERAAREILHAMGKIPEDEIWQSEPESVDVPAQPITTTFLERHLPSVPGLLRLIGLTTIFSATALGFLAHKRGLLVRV

IC50: 10.5 µM
SMILES: CC(C)NC(=O)c1cc2ccccc2oc1=O
